Increasing Fold and MFI data for 18 substances are collected here from US20200102400A1.

The chains behind the UniProt entries cited, without tags or fusion partners. Residues count along the entry.
UniProt P08637, 17-208 F176V: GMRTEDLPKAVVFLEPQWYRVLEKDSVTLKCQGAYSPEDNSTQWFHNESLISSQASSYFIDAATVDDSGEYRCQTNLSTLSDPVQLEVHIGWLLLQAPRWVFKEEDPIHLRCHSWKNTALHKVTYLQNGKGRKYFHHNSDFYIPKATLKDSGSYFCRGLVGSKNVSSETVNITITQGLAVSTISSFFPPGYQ
UniProt P31994, 43-217: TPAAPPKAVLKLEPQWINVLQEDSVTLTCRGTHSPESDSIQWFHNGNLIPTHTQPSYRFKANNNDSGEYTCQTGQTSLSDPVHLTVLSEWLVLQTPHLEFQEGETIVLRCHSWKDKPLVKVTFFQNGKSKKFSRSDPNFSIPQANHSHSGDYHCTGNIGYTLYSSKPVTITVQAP
UniProt P02745, 23-245, chain 1 of 3: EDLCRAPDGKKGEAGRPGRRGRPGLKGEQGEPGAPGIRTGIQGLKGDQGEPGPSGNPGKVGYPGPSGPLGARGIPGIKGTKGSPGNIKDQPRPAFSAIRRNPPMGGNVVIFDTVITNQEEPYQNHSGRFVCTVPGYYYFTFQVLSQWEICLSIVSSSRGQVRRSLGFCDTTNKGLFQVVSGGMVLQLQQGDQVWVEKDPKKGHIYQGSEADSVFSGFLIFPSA

In assay [1] the target is FcγRIIIa-V158-GST (dimeric FcγRIIIaV158) (human) (UniProt P08637). Put plainly: FACS, 100 nM FcγRIIIaV158-GST-PE; vs Aglyco IgG. In general terms: A flow cytometer gives signals particle by particle.
For assay [2] the target is unchanged. The experiment in a line: FACS, cell display, 100 nM FcγRIIIaV158-GST-PE.
For assay [3], the target named is FcγRIIb-GST (dimeric FcγRIIb) (human) (UniProt P31994). The experiment in a line: FACS, cell display, 100 nM FcγRIIb-GST-PE.
Assay [4] has the same target. Put plainly: FACS, 100 nM FcγRIIb-GST-PE; vs Aglyco IgG.
Assay [5] addresses C1q protein from human serum (human) (UniProt P02745). Put plainly: FACS, 10 nM C1q-PE; vs Aglyco IgG.
For assay [6] the target is unchanged. The experiment in a line: FACS, cell display, 10 nM C1q-PE.

In the case of “Fc-V1 IgG variant (displayed) (antibody)”, the Increasing Fold in assay [1] is 32.3 fold. This substance registered an MFI in assay [2] of 123.
On to “Fc-V1 IgG variant (displayed) (antibody; other documents disagree on this pair)”, for which the values for the MFI in assay [3] and in assay [6] were 6.8 and 1050, respectively. In addition, the Increasing Fold worked out at 1.51 fold in assay [4] and 44.8 fold in assay [5].
Substance “Fc-V11 IgG variant (displayed) (antibody)” displayed an Increasing Fold in assay [1] of 41.7 fold. The same substance had an MFI in assay [2] of 159.
For “Fc-V11 IgG variant (displayed) (antibody; other documents disagree on this pair)”, the MFI in assay [3] was 8.1; in assay [6], 1120. The Increasing Fold in assay [4] is 1.8 fold; in assay [5] it was 47.8 fold.
In assay [1], “Fc-V12 IgG variant (displayed) (antibody)” returned an Increasing Fold of 46.5 fold. The same substance yielded an MFI in assay [2] of 176.
As for “Fc-V12 IgG variant (displayed) (antibody; other documents disagree on this pair)”, the MFI in assay [3] stood at 7.9; in assay [6], 1040. For the same substance, the Increasing Fold in assay [4] is 1.76 fold; in assay [5], 44.1 fold.
The substance “Fc-V15 IgG variant (displayed) (antibody)” had an Increasing Fold in assay [1] of 34 fold. The MFI in assay [2] came to 129.
For the substance “Fc-V15 IgG variant (displayed) (antibody; other documents disagree on this pair)”, the figures for the MFI in assay [3] and in assay [6] were 11.8 and 1310, respectively. Also, the Increasing Fold in assay [4] turned out to be 2.62 fold; in assay [5], 55.5 fold.
“Fc-V18 IgG variant (displayed) (antibody)” yielded an Increasing Fold in assay [1] of 46.5 fold. In addition, the MFI in assay [2] is 176.
In the case of “Fc-V18 IgG variant (displayed) (antibody; other documents disagree on this pair)”, the figures for the MFI in assay [3] and in assay [6] were 9.8 and 1050, respectively. For the same substance, the Increasing Fold in assay [4] was found to be 2.18 fold; in assay [5] it was 44.5 fold.
Substance “Fc-V19 IgG variant (displayed) (antibody)” returned an Increasing Fold in assay [1] of 43.9 fold. This substance also had an MFI in assay [2] of 167.
As for “Fc-V19 IgG variant (displayed) (antibody; other documents disagree on this pair)”, the results for the MFI in assay [3] and in assay [6] were 6.9 and 1330, respectively. In addition, the Increasing Fold was 1.53 fold in assay [4] and 56.8 fold in assay [5].
On to “Fc-V23 IgG variant (displayed) (antibody)”, for which, in assay [1], the Increasing Fold is 35.9 fold. The MFI in assay [2] was 136.
As to “Fc-V23 IgG variant (displayed) (antibody; other documents disagree on this pair)”, the MFI in assay [3] came out at 10.5; in assay [6], 1210. Further, the Increasing Fold turned out to be 2.33 fold in assay [4] and 51.5 fold in assay [5].
As to “Fc-V24 IgG variant (displayed) (antibody)”, the Increasing Fold in assay [1] stood at 34.2 fold. For the same substance, the MFI in assay [2] was determined as 130.
Turning to “Fc-V24 IgG variant (displayed) (antibody; other documents disagree on this pair)”, the MFI in assay [3] came out at 9.4; in assay [6] it was 1140. Also, the Increasing Fold in assay [4] amounted to 2.09 fold; in assay [5], 48.7 fold.
With “Fc-V26 IgG variant (displayed) (antibody)”, in assay [1], the Increasing Fold stood at 35.8 fold. In assay [2], this substance had an MFI of 136.
Consider “Fc-V26 IgG variant (displayed) (antibody; other documents disagree on this pair)”, for which the MFI was determined as 7.5 in assay [3] and 1210 in assay [6]. Besides, the figures for the Increasing Fold in assay [4] and in assay [5] were 1.67 fold and 51.5 fold, respectively.
